Experimental data published in ChEMBL document CHEMBL1770076, “(+)-Arisugacin A--computational evidence of a dual binding site covalent inhibitor of acetylcholinesterase” (Bioorg Med Chem Lett, 2011).

Amino acid sequences for entries named in this document (tags omitted).
UniProt P06276, whole entry: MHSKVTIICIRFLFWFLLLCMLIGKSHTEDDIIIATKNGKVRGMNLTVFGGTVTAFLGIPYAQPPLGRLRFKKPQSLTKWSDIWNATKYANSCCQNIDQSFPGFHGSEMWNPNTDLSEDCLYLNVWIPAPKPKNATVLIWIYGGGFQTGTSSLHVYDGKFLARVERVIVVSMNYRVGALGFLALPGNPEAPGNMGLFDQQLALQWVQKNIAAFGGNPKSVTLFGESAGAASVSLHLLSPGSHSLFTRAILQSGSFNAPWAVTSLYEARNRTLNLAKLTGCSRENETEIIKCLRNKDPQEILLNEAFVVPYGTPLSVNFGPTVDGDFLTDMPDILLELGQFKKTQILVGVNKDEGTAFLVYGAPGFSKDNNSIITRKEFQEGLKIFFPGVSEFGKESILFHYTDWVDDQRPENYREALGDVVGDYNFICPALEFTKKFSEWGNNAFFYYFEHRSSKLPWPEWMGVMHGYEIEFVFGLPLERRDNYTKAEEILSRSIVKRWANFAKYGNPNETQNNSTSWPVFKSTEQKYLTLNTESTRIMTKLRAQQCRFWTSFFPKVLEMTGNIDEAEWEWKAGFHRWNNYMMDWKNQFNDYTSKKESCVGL

Target: Cholinesterase (Homo sapiens, UniProt P06276)

CCN(C)C(=O)Oc1cccc([C@H](C)N(C)C)c1 [RIVASTIGMINE]
IC50: 49 nM
